Consider 1 compound from publication PMC12687449, “Membrane disruption attenuates agonist potency in prostanoid receptors” (Biochemical Journal, 2025).

Protein sequences, listed by entry. Tags and fused reporters are not part of them. Chains listed by the source or under a name are the forms on record and can include a tag or linker.
UniProt P43116, with tags, fused parts or gaps DEL238-250: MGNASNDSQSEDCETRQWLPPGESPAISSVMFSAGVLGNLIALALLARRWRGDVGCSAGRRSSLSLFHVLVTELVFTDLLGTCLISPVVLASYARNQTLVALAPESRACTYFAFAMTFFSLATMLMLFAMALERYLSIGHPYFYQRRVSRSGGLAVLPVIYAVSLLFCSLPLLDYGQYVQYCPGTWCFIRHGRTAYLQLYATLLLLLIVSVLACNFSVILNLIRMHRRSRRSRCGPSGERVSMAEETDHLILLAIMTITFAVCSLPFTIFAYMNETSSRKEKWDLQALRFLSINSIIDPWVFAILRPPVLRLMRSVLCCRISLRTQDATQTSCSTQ

This assay concerns the target T1, EP2 receptor conformation sensor (Homo sapiens, UniProt P43116, DEL238-250).
T1 construct: mT2 insertion and truncation after Q349; expressed in transfected cells
Nature of the assay: FRET-based EP2 receptor conformation sensor, single-cell measurements in HEK293 cells. The protocol:
The cells were washed once with external buffer and subsequently incubated 2 minutes for single-cell FRET measurements or 10 minutes for BRET measurements in 0.05% saponin (AppliChem, Darmstadt, Germany) dissolved in internal buffer. Afterward, the cells were washed five times for single-cell FRET measurements or three times for BRET measurements with internal buffer.
The coverslips loaded with stably transfected HEK293 cells containing either the FFA3 receptor, α2A-AR CAM, or ETB receptor conformation sensors were clamped in an Attofluor^TM cell chamber and were washed once with external buffer. Afterward, they were side by side either permeabilized or directly measured at room temperature by the use of an inverted microscope (Elipse Ti2, Nikon, Düsseldorf, Germany), equipped with a 100× oil immersion objective (Plan Apo λ 100 x/1.45 oil ∞/0.17 WD 0.13, Nikon, Düsseldorf, Germany) and dual excitation and dual emission imaging capabilities. […] The fluorescence emission of mT2 and the respective YFP variant was simultaneously collected by a second beamsplitter (488, Chroma, Bellows Falls, Vermont, U.S.A.) and two emission filters (mT2: 474/27, Chroma; YFP: 544/23, Chroma). […] For all single-cell FRET experiments, cells were prospectively selected based on a continuous plasma-membrane fluorescence rim and appropriate fluorescence distribution to ensure a PM-dominant receptor signal. […]

SMILES strings stand for the structures.

As usually defined, the EC50 is the concentration at which the effect is half-maximal. `CCCCC[C@H](O)/C=C/[C@H]1[C@H](O)CC(=O)[C@@H]1C/C=C\CCCC(=O)O` [PGE2, (Z)-7-[(1R,2R,3R)-3-hydroxy-2-[(E,3S)-3-hydroxyoct-1-enyl]-5-oxocyclopentyl]hept-5-enoic acid] showed an EC50 of 0.209 µM. The “response to the test concentration (about 10 times EC50) normalized to saturating concentration” value (intact cells, 3000 nM PGE2, reference 20 µM PGE2) is “full response”.
